Tests used:
[1] = Ibuprofen lysinate vehicle screening
[2] = Screening for ibuprofen solubility in different vehicles (steps T1-T3); details: for Observation: amount in cell beside
Description: Different solvent systems such as oils and medium chain triglycerides, solubilizing agents, emulsifying agents (self-emulsifying) and surfactants for the liquid filled capsules were screened for their effectiveness in solubilizing ibuprofen and are listed in Tables 5 to 6.
The screening method involved the following steps:
2. Step T2: the sample was heated using a hot plate and stirrer to facilitate ibuprofen solubility in the vehicle and the samples were left overnight.
3. […] Additional ibuprofen was added by reheating selected T2 solutions until re-crystallization or precipitation was observed.
Observations on whether ibuprofen appeared as dissolved, a suspension (fine suspension) or crystallized (agglomerates) were reported.

[3] = Ibuprofen vehicle screening (single excipients); assay type: physicochemical
Description: Initially, ibuprofen United States Pharmacopeia grade (USP) powder was mixed at room temperature with individual excipients being considered as shown in Table 1. Ibuprofen was incrementally added and mixed until a precipitate was observed. […] Observations were made daily to determine if the mixture would remain a solution or precipitate out within an approximately 24 hour period.

Row | Substance | Solubility of ibuprofen lysinate in various vehicles ([1]; mainly anhydrous systems) | Observation ([2]; step T1: ibuprofen in 10.0 g vehicle, mixed at room temperature) | Amt of API added ([2]; step T1: ibuprofen into 10.0 g vehicle at room temperature, outcome in Observation cell beside) | Amt of API added ([2]; step T2: heated on hot plate with stirring, left overnight, 10.0 g vehicle, outcome in cell beside) | Observation ([2]; step T2: heated on hot plate with stirring, left overnight) | Amt of API added ([2]; step T3: additional ibuprofen with heating, observed approx. 24 hours, 10.0 g vehicle, outcome in cell beside) | Observation ([2]; step T3: additional ibuprofen with heating, observed approx. 24 hours) | Approximate Percentage of IBL salt added in powder form to excipient and heated ([1]; ibuprofen lysinate (IBL) in the excipient named, outcome in Comments cell beside) | Approx. Percentage of API that Resulted in Precipitate ([3]; ibuprofen USP in the excipient named, precipitate within approx. 24 h after cooling to room temperature, * = close to saturation point, only a few crystals) | Approx. Max. Percentage of API in Solution Tested ([3]; ibuprofen USP in the single excipient named, melted in on hot plate, remained in solution approx. 24 h)
1 | Ibuprofen lysinate [reference compound] | Limited solubility | – | – | – | – | – | – | – | – | –
2 | Hexylene Glycol | – | Dissolved (T1) | 4250.0 mg | 5250.0 mg | Dissolved (T2) | 10000.0 mg | Crystallized (T3) | 2.4% | 50% | 31%

— patent US20080075767A1, “IBUPROFEN-CONTAINING LIQUID FILLED HARD CAPSULES” (priority 2006, published 2008)
